Reference: PubChem BioAssay AID720551 (National Center for Advancing Translational Sciences (NCATS), 2013)
The list shows a part of the results, in another mix than the full data. Activity calls are given as the source filed them.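 Rule for the calls: active = maximum activity change below -70%; inconclusive = maximum activity change between -70% and -50%; inactive = maximum activity change above -50%.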

Amino acid sequences for entries named in this document (tags omitted). A change or cut given only in a name is not applied to a line headed by its entry.
UniProt Q12809: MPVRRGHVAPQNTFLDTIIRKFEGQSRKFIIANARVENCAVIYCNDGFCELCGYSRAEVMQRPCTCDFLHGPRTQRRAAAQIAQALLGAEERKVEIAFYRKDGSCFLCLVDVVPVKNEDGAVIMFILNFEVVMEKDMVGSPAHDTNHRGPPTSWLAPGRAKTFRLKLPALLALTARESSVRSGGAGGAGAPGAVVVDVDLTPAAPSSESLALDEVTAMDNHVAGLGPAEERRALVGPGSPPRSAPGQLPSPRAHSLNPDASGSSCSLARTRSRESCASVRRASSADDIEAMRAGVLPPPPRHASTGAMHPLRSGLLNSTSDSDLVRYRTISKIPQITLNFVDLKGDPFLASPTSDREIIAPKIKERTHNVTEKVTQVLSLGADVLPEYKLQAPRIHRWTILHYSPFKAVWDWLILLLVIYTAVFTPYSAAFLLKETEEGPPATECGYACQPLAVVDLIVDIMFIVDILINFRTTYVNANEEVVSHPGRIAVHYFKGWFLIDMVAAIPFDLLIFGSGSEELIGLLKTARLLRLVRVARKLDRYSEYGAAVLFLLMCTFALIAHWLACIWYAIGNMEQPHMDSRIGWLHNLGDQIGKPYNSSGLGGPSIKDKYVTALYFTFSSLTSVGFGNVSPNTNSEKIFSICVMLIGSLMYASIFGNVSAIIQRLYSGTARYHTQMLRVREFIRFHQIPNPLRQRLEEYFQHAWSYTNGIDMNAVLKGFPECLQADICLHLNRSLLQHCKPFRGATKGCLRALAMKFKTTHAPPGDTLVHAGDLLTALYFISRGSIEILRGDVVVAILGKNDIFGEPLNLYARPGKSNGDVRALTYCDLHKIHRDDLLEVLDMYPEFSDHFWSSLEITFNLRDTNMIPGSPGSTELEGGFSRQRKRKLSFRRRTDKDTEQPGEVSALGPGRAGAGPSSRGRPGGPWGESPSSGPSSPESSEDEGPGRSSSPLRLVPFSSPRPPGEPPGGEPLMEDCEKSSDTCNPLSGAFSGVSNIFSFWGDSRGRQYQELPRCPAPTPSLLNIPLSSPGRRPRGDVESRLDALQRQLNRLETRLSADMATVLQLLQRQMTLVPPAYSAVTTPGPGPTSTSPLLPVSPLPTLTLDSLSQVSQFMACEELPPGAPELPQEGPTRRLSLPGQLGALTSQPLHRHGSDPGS

Each molecule was assayed against Voltage-gated inwardly rectifying potassium channel KCNH2 (Homo sapiens) (UniProt Q12809) (assay: qHTS for Inhibitors of KCHN2 3.1: Wildtype qHTS). Conditions: U2OS, BacMam KCNH2, thallium flux FluxOr; at 1.84 µM; hits give low values.
Text: Many antipsychotic drugs that inhibit the neurotransmitter dopamine also bind to hERG1 channel which might help explain their antipsychotic activity but also produces cardiac side effects. The discovery of the novel KCNH2 3.1 isoform offers a potential new target for the development of antipsychotic drugs without cardiac side effects. This proposal will use a high throughput thallium flux assay developed for KCNH2 to screen compounds that modulate the activity of KCNH2 3.1. The wild type KCNH2 channel will also be screened in parallel to help define the selective modulators of this KCNH2 3.1 potassium channel. The resulting compounds will be validated in electrophysiology experiments. The availability of animal models will allow future testing in vivo for effects on memory and other aspects of animal physiology linked with psychosis. NIH Chemical Genomics Center [NCGC] NIH Molecular Libraries Probe Centers Network [MLPCN] MLPCN Grant: MH096539 Assay Submitter (PI): James Barrow, Johns Hopkins University, Lieber Institute for Brain Development
U2OS cells were resuspended in cell media containing 10% fetal calf serum (FCS) at a concentration of 2 million cells / mL. The solution was treated with the Wild-type virus at 2.03 x 10^8 / mL and allowed to incubate at room temperature in the dark. After 4 hours of incubation, DMEM + 10% fetal bovine serum (FBS) was added to the cell solution. Three microliter was then dispensed into a 1536 tissue culture treated black assay plates which were incubated overnight at 37 C. Two microliter of loading buffer (HBSS + HEPES + Red40 dye quencher + FluxOr dye) was added and the assay plates were incubated for 45 min at room temperature in the dark. Twenty-three nanoliter of test compounds and positive control Haloperidol (46 uM final concentration) were added to the assay plate followed by a kinetic read (180 sec) using the Hamamatsu FDSS reader. A stimulation buffer was added to the plate and the second kinetic read (2 min) was obtained. The rate constant was calculated from the kinetic reads and normalized to the positive and negative DMSO controls.
% is set by controls: 0 for no effect and ±100 for the full control effect.

| Compound | activity change |
| --- | --- |
| CCOC(=O)C1=C[C@]2(CC)CCCN3CCc4c(n1c1ccccc41)[C@@H]32 | active: -93.6% |
| CC(C)COCC(CN(Cc1ccccc1)c1ccccc1)N1CCCC1 (configuration not stated) | active: -79.6% |
| CN1CCC[C@@H]1CCO[C@](C)(c1ccccc1)c1ccc(Cl)cc1 | active: -125% |
| O=C(CCCN1CCC(O)(c2cccc(C(F)(F)F)c2)CC1)c1ccc(F)cc1 | active: -122% |
| O=C(CCCN1CCC(O)(c2ccc(Cl)cc2)CC1)c1ccc(F)cc1 | active: -111% |
| CCNC(=O)N1CCN(CCCC(c2ccc(F)cc2)c2ccc(F)cc2)CC1 | active: -137% |
| CN1CCCC1CCOC(C)(c1ccccc1)c1ccc(Cl)cc1 (configuration not stated) | active: -143% |
